{
  "sequences": {"note": "Chains of the proteins cited; added tags and fusions are not shown.", "UniProt P00811, whole entry": "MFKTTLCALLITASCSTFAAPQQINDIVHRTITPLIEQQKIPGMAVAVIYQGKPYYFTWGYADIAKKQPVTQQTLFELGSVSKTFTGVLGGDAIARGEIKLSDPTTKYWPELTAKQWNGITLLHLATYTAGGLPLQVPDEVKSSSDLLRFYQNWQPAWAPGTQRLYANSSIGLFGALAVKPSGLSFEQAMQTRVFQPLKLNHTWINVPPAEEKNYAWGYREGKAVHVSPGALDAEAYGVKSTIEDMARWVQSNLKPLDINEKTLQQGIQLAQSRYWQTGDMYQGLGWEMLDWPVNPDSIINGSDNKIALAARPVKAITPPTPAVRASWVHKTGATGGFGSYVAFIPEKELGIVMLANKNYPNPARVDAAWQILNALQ"},
  "source": "PubChem BioAssay AID585",
  "about": "(National Center for Advancing Translational Sciences (NCATS), 2007)",
  "note": "This is a selection; strong and weak results do not stand in their true shares. Calls of active or inactive are those of the source. The call rests on the fitted dose curve.",
  "data": [
    {"target": "Beta-lactamase (Escherichia coli (strain K12)) (UniProt P00811)", "assay": "Promiscuous and Specific Inhibitors of AmpC Beta-Lactamase (assay without detergent); further: % of control where 0% means no effect", "conditions": "AmpC nitrocefin hydrolysis, absorbance 480 nm, no detergent; at 28.7 µM (top of the series)", "protocol": "NIH Molecular Libraries Screening Centers Network [MLSCN]\nNIH Chemical Genomics Center [NCGC]\nPI Name: Shoichet, Brian K.\nThis aggregation profiling approach exploits the sensitivity of aggregate formation to detergent. Inhibition of b-lactamase is measured in the presence and absence of 0.01% Triton X-100. See Pubchem assay \"Promiscuous and Specific Inhibitors of AmpC Beta-Lactamase (assay with detergent)\" for related screen. Compounds that inhibit only in the absence of detergent are considered likely promiscuous aggregators.\nA screen of 1,030 compounds was performed in Brian Shoichet's lab in 96-well format. AmpC activity was measured by following the absorbance at 480 nm. Nitrocefin is a chromogenic substrate: while nitrocefin is yellow (lmax 390 nm), the product of its hydrolysis is red (lmax 486 nm, 17,000 M-1). AmpC beta lactamase was provided by Brian Shoichet and Brian Feng, UCSF.\nNCGC Assay Protocol Summary:\n20 mM phosphate buffer, pH 7.0\nTriton X-100: No Detergent screen: 0.0001%, Detergent screen: 0.01%.\nBuffer in columns 3 and 4 as negative control (no enzyme).\n5.3 nM AmpC in columns 1, 2, 5-48. […]\nSix uL of reagents were dispensed to 1536-well Greiner black clear bottom plates. […] The plates were immediately transferred to and read every 20 seconds for 4 min on ViewLux (Perkin-Elmer) High-throughput CCD imager using 480 nm absorbance protocol. […]", "values": [
      {"smiles": "O=[N+]([O-])C(Cl)(Cl)Cl", "activity change, negative = inhibition": "inactive: -4.4%"},
      {"smiles": "CN(CCCl)CCCl", "activity change, negative = inhibition": "inactive: -5.8%"}
    ]}
  ]
}
